Values of other authors as cited in patent US20240124538A1, “Modulation of Wnt5a to Treat Glaucoma” (The Regents of the University of California, priority 2017, published 2024).

Details: Shinonaga et al. 2009; cited from earlier work

In the case of 6,7-dihydro-10alpha-hydroxy radicicol, the stability is given as “excellent stability”.
